Assay outcomes deposited in PubChem BioAssay by Broad Institute.
Yeast UUG start: modulators of start codon recognition fidelity in yeast; AID 602363; hit rate 0.13% among 350,000; activity score, % at 18.7 µM; S. cerevisiae UUG-firefly luciferase reporter, luminescence/redox ratio;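 active = replicate mean at a twofold rise or more, about +100% in these data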;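 note: firefly luciferase made from a UUG start codon reports start codon fidelity; reporter light over untreated wells divided by growth signal over untreated wells; some hits fall short of that in this replicate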
PDI turbidity: inhibitors of human protein disulfide isomerase | inhibition, % at 10 µM | P07237 | PDI insulin aggregation turbidity, A650, 90 min | 350,000 compounds, 0.052% hits;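 active = mean inhibition across replicates of 30% or more, whatever share of single replicates reach that level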
ERp5 block: blocks human ERp5 reductase activity on insulin. ERp5 insulin aggregation, absorbance 650 nm, 90 min. 350,000 compounds, 0.05% hits. AID 651711. Q15084. inhibition, % at 9.99 µM;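 active = mean replicate inhibition above about 25%, with every replicate also reaching it, limit read from the data, passing the limit was not always enough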
FGF22 binding: FGF22 (human) thermal shift binding. Q9HCT0. recombinant FGF22 thermal shift, SYPRO orange fluorescence; percent of sucrose octasulfate shift, DMSO zero. activity (Tm shift, normalised), % at 9.99 µM. 340,000 compounds, 1.5% hits;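 active = mean Tm shift, scaled 0 neutral to 100 positive control, at about 1.3% or above, every replicate too, limit read from the data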
SIRT5 inh: sirtuin-5 (human) deacylase inhibition; 330,000 compounds, 1.1% hits; Purified SirT5, succinyl-peptide AMC, trypsin-coupled fluorescence; Q9NXA8; inhibition, % at 15 µM; in the data active = inhibition above about 15%
S100A4 MyoIIA: inhibitors of human S100A4 binding to myosin IIA peptide; P26447; S100A4/TAMRA-MyoIIA peptide fluorescence polarization; inhibition, % at 10.7 µM; 360,000 compounds, 0.14% hits; AID 652163;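 active = mean inhibition of at least 70% across replicates, with every replicate also reaching that level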
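incubation = readout 5 min after mixing, signal stable up to 60 min | system = S100A4 monomer protein | buffer or medium = HEPES pH 7.2 with CaCl2, KCl, NaCl, DTT, Triton | benchmarks = neutral control DMSO, positive control TFP | also added = fluorescent myosin IIA peptide, 5 nM | compound dosing = one concentration per compound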
Of the large screens only hits and unclear results are named; the others gave an inactive call; ! = not confirmed by another sample. Sampled rows, rich in hits. Any-hit rate of the full collection: about 2.2%.

N#Cc1ccc(-c2ccc(C3[C@H]4CNC[C@@H]3N4C(=O)NC3CCCCC3)cc2)cc1 (stereo partly specified)	none (no result: Yeast UUG start, PDI turbidity, ERp5 block, SIRT5 inh, S100A4 MyoIIA)
COc1ccc(S(=O)(=O)Nc2ccc3c(c2)C(=O)N([C@H](C)CO)C[C@H](C)[C@@H](CN(C)C(=O)Nc2ccccc2)O3)cc1	none (no result: SIRT5 inh)
C[C@@H]1CN([C@H](C)CO)C(=O)c2cc(NS(=O)(=O)c3cn(C)cn3)ccc2O[C@H]1CN(C)C(=O)Nc1ccccc1	SIRT5 inh 23!
COc1ccc(NC(=O)N(C)C[C@H]2Oc3ccc(NS(=O)(=O)c4ccc(OC)cc4)cc3CC(=O)N([C@@H](C)CO)C[C@H]2C)cc1	none (no result: PDI turbidity)
COc1ccc(NC(=O)N(C)C[C@H]2Oc3ccc(NS(=O)(=O)c4ccccc4)cc3C(=O)N([C@@H](C)CO)C[C@@H]2C)cc1	ERp5 block 33 (no result: PDI turbidity)
COc1ccc(S(=O)(=O)Nc2ccc3c(c2)C(=O)N([C@H](C)CO)C[C@H](C)[C@H](CN(C)C(=O)Nc2ccccc2)O3)cc1	ERp5 block 29 (no result: PDI turbidity)
COc1ccc(NC(=O)N(C)C[C@H]2Oc3ccc(NS(=O)(=O)c4ccc(OC)cc4)cc3CC(=O)N([C@H](C)CO)C[C@H]2C)cc1	SIRT5 inh 20 (no result: PDI turbidity)
CC(C)NC(=O)N[C@H]1C=C[C@H](CC(=O)NCCN2CCCC2)O[C@H]1CO	none (no result: PDI turbidity)
CC(C)NC(=O)N(C)C[C@@H]1Oc2ccc(NS(=O)(=O)c3ccccc3)cc2C(=O)N([C@H](C)CO)C[C@@H]1C	S100A4 MyoIIA 112 (no result: PDI turbidity)
CC(C)NC(=O)N(C)C[C@H]1Oc2ccc(NC(=O)Cc3ccccc3)cc2C(=O)N([C@H](C)CO)C[C@@H]1C	SIRT5 inh 20!
C[C@@H]1CN([C@H](C)CO)C(=O)c2cc(C#Cc3cccc(F)c3)cnc2O[C@H]1CN(C)C(=O)C1CCCCC1	none (no result: PDI turbidity)
O=C(C[C@@H]1CC[C@@H]2[C@H](COC[C@@H](O)CN2S(=O)(=O)c2ccc(Cl)cc2)O1)NCCN1CCCCC1	none (no result: Yeast UUG start, PDI turbidity)
CC(OC(=O)c1cccnc1Cl)C(=O)Nc1ccc2c(c1)OCCO2 (stereo unspecified)	FGF22 binding 43 (no result: Yeast UUG start)
CSc1ncccc1C(=O)OC(C)C(=O)Nc1ccc2c(c1)OCCO2 (stereo unspecified)	none (no result: SIRT5 inh)
CO[C@H]1CN(C)C(=O)c2cccc(C#N)c2OC[C@@H]2O[C@H](CC[C@H]2OC)CCN(C)C(=O)[C@@H]1C	none (no result: Yeast UUG start, PDI turbidity)
CN(C)C(=O)C[C@@H]1C[C@@H]2c3cc(NS(=O)(=O)c4ccc(F)cc4)ccc3O[C@@H]2[C@H](CO)O1	none (no result: PDI turbidity, ERp5 block, SIRT5 inh, S100A4 MyoIIA)
CCN(C(=O)CN1C(=O)S/C(=C\c2cccc(OC)c2)C1=O)C1CCS(=O)(=O)C1 (stereo unspecified)	SIRT5 inh 16
COc1cccc(/C=C2\SC(=S)N(CC(=O)N(C)C3CCS(=O)(=O)C3)C2=O)c1 (stereo unspecified)	none
CCNC(=O)C1(C)CCCN(Cc2cccc(Oc3ccccc3)c2)C1 (stereo unspecified)	none (no result: ERp5 block, FGF22 binding, SIRT5 inh, S100A4 MyoIIA)
CCCNC(=O)C1(C)CCCN(Cc2cccc(Oc3ccccc3)c2)C1 (stereo unspecified)	SIRT5 inh 20 (no result: Yeast UUG start)
COc1ccc([C@H]2CC(=O)C=C(c3ccc(OC)c(OC)c3)C2)cc1	none
COc1ccc([C@H]2CC(=O)C=C(c3ccc4c(c3)OCO4)C2)cc1OC	FGF22 binding 4.0
COc1ccc([C@H]2CC(=O)C=C(c3ccc4ccccc4c3)C2)cc1OC	SIRT5 inh 15
COc1ccccc1S(=O)(=O)Nc1ccc2c(c1)C(=O)N(C)C[C@@H](OC)[C@H](C)CN[C@@H](C)CO2	none (no result: Yeast UUG start, PDI turbidity)
O=C(COC(=O)c1cc(S(=O)(=O)N2CCOCC2)ccc1Cl)NC1CCCCC1	FGF22 binding 43 (no result: SIRT5 inh)
CCN(CC)c1ccc(/C=N/NC(=O)c2cccc(S(=O)(=O)N3CCOCC3)c2)c(O)c1	FGF22 binding 43
CC1CCC(NC(=O)c2cccc(S(=O)(=O)N3CCOCC3)c2)CC1 (stereo unspecified)	FGF22 binding 43 (no result: SIRT5 inh)
C[C@@H]1CN([C@@H](C)CO)C(=O)c2cc(C#Cc3ccccc3F)cnc2O[C@@H]1CN(C)C(=O)c1ccc2c(c1)OCO2	none (no result: PDI turbidity)
O=C1CCCn2cc(nn2)COC[C@@H](Cc2ccccc2)N1	S100A4 MyoIIA 117 (no result: Yeast UUG start, PDI turbidity)
CCC(=O)N1CC2(C1)[C@H](c1ccccc1)[C@H](CO)N2Cc1cccc(Cl)c1	none (no result: Yeast UUG start, PDI turbidity)
CCCN1[C@@H]2c3ccc(-c4ccccc4)c(=O)n3C[C@@H]2[C@@H](CO)[C@@H]1C(=O)OC	none (no result: Yeast UUG start, PDI turbidity)
N/C(=N\N=C\c1ccc(O)cc1)c1nonc1N	FGF22 binding 44 (no result: Yeast UUG start)
N/C(=N\N=C\c1ccc(O)c(O)c1)c1nonc1N	none (no result: Yeast UUG start)
CCn1ccnc1CN(C)Cc1cn(-c2ccccc2)nc1-c1ccc(OC)cc1F	FGF22 binding 45
O=C1S/C(=C\C=C\c2ccco2)C(=O)N1c1ccc(O)cc1	none (no result: Yeast UUG start, FGF22 binding)
Cn1cccc1/C=C1\SC(=S)N(NC(=O)c2ccccc2O)C1=O	none (no result: Yeast UUG start)
O=C(NN1C(=O)/C(=C/C=C/c2ccco2)SC1=S)c1ccccc1O	SIRT5 inh 46
O=C(O)CCCN1C(=O)/C(=C/C=C/c2ccco2)SC1=S	SIRT5 inh 32 (no result: Yeast UUG start)
O=C(O)C(Cc1ccccc1)N1C(=O)/C(=C/C=C/c2ccco2)SC1=S (stereo unspecified)	SIRT5 inh 45
O=C(O)CC(C(=O)O)N1C(=O)/C(=C/C=C/c2ccco2)SC1=S (stereo unspecified)	SIRT5 inh 30
CO[C@@H]1CN(C)C(=O)c2cc(NC(=O)C3CCC3)ccc2OC[C@H](C)N(C)C[C@@H]1C	none (no result: Yeast UUG start, PDI turbidity)
Cc1ccccc1C(=O)NC(=S)Nc1ccc(Cc2ccncc2)cc1	none (no result: ERp5 block, FGF22 binding, SIRT5 inh, S100A4 MyoIIA)
O=C(NC(=S)Nc1ccc(Cc2ccncc2)cc1)c1ccccc1F	FGF22 binding 44 (no result: Yeast UUG start)
COc1ccc(C(=O)NC(=S)Nc2ccc(Cc3ccncc3)cc2)cc1	FGF22 binding 44 (no result: Yeast UUG start)
CN(C)CC#Cc1ccc([C@@H]2[C@H]3CN(C(=O)C4CC4)CCCCN3[C@H]2CO)cc1	none (no result: PDI turbidity, ERp5 block, FGF22 binding, SIRT5 inh, S100A4 MyoIIA)
COc1ccccc1NC(=S)NN1CCN(C)CC1	none (no result: Yeast UUG start)
CN1CCN(NC(=S)NC(C)(C)CC(C)(C)C)CC1	FGF22 binding 43
CN1CCN(NC(=S)NC2CCCC2)CC1	FGF22 binding 43 (no result: Yeast UUG start)
CNC(=O)C[C@@H]1CC[C@@H]2[C@@H](COc3ccc(NC(=O)c4cccc(OC)c4)cc3C(=O)N2C)O1	none (no result: PDI turbidity)
O=C(O)CCCCCN=Cc1c(O)c2ccccc2oc1=O	none (no result: Yeast UUG start, FGF22 binding)
O=C(O)CCN=Cc1c(O)c2ccccc2oc1=O	FGF22 binding 43 (no result: Yeast UUG start)
CN1c2ccc(C3=CCCCC3)cc2[C@H]2[C@H](CCN2C(=O)Cc2ccccn2)[C@@H]1CO	none (no result: PDI turbidity, ERp5 block, SIRT5 inh, S100A4 MyoIIA)
CCOC(=O)C1=CN(Cc2cccc(Br)c2)S(=O)(=O)N(C)C1C (stereo unspecified)	SIRT5 inh 42
CN(C)S(=O)(=O)c1ccc2nnn(O)c2c1	FGF22 binding 43
